We go through 1 molecule from paper PMC5477544, “Structural and mechanistic basis of differentiated inhibitors of the acute pancreatitis target kynurenine-3-monooxygenase” (Nature Communications, 2017).

Sequences of proteins named here, by UniProt entry; tags and fusion partners are left off. A change or cut given only in a name is not applied to a line headed by its entry.
UniProt O15229: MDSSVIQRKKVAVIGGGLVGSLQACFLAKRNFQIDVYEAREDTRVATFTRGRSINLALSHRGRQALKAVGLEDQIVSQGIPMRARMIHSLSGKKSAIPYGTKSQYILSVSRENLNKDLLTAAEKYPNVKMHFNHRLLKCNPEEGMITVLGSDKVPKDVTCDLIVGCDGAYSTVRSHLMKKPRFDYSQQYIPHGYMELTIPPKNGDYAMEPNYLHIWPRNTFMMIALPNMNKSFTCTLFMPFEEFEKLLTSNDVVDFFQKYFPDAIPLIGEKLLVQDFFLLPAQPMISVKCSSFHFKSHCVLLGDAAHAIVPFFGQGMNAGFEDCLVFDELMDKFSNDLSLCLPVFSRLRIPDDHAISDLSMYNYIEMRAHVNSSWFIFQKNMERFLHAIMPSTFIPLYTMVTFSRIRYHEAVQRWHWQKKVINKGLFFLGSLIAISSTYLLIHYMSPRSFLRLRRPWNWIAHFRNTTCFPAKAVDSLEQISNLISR

Structures are written as SMILES. Read-outs that look alike come from different tables or passages of the source.

For this experiment, the target named is T1, human KMO (Homo sapiens, UniProt O15229).
T1 construct: full-length human KMO was cloned as an N-terminal GST fusion; GST (N); made in house; host or cells: Sf9 insect cells, used as a membrane fraction
The experiment is described as follows: Rapidfire mass spectrometry IC50 assay, isolated human KMO. The format is biochemical. On the procedure: For the expression and isolation of human KMO membranes, full-length human KMO was cloned as an N-terminal GST fusion, expressed in Sf9 cells and isolated as a membrane fraction as described in Lowe et al.[12]
Inhibitor IC50 values against isolated human KMO were determined using a Rapidfire mass spectrometry assay as described in Lowe et al.[12] utilizing the Sf9 cell expressed human KMO described above. The inhibitor IC50 values against Pf-KMO were determined using an analogous Rapidfire mass spectrometry assay, utilizing the purified protein described above.

In the case of `C[C@@H](Oc1cc2oc(=O)n(CCC(=O)O)c2cc1Cl)c1ccccn1` [GSK775], the 50% inhibitory concentration (IC50) by setting is: (from inhibition curves of Fig. 3b, read-out: IC50 Human KMO) 2.7 nM; (human enzyme, mean of n determinations given in text, read-out: IC50 (mean potency, in vitro activity)) 2.5 nM. The “Effect of [L-Kyn] on IC50 (mode of inhibition)” value (human KMO) is “no dependence on [L-Kyn]”.
